# Source: PMC12302720 (2025)
# T1: extracellular domain of cynomolgus CD47 (CyCD47 ECD) (cynomolgus)
# T1 chain: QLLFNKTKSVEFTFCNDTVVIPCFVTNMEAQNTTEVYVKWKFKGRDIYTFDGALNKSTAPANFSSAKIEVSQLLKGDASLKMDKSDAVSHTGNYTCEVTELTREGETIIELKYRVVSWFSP
# B1: 1C8, rabbit-derived anti-CD47 monoclonal antibody (rabbit variable regions on human IgG4PE and Igκ) (antibody, V domains shown)
# VH: QSVKESEGGLFKPTDTLTLTCTVSGFSLSSYAISWVRQAPGKGLEYIGYISSIGDPYYASWVNGRFTISRTSSTVTLKMTSLTAADTATYFCARSYPGNGDLGRLDIWGQGTLVTVSS
# VL: DPMLTQTPSPVSAAVGGTVSISCQSSQSVYRNKYLSWYQQKPGQPPKLLIYYASTLASGVPSRFKGSGSGTQFTLTISDVQCDDAATYYCAGDYSDDIENAFGGGTEVVVK
# B2: Hu1C8, humanized anti-CD47 monoclonal antibody (antibody, V domains shown)
# VH: QSVKESGGGLFQPGGSLRLSCSVSGFSLSSYAISWVRQAPGKGLEYIGYISSIGDPYYADWVKGRFTISRDSSTVYLQMTSLRAEDTAVYFCARSYPGNGDLGRLDIWGQGTTVTVSS
# VL: DPMLTQSPSFLSASVGDRVTITCQSSQSVYRNKYLSWYQQKPGKAPKLLIYYASTLASGVPSRFSGSGSGTEFTLTISSLQPEDFATYYCAGDYSDDIENAFGGGTKVEIK
# Legend:
# Test in all cases: ELISA
# [1] = target: T2, extracellular domain of human CD47 (HuCD47 ECD) (human, UniProt Q08722 19-139)
# [2] = target: T2, extracellular domain of human CD47 …; remark: listed apart in the source
# [3] = target: T1, extracellular domain of cynomolgus CD47 …
Binder,IC50 [1] [µg/mL],EC50 [2] [µg/mL],EC50 [3] [µg/mL]
B1,2.26,0.39,0.31
B2,2.34,0.37,0.24
